The list shows a part of the results, in another mix than the full data. Results filed as inconclusive are left out. For part of these data: Entries with a potency or affinity are not part of this list. Active and inactive are the calls of the source. Unless noted, calls come from the whole dose curve; as a rule, active = well fitted curve in either direction with a large enough effect (not every such curve was filed as active); inconclusive = small, poorly fitted or top-dose-only effect, or another doubt; inactive = flat fitted curve, though single readings scatter.
Tests used:
[1] = AP1 Signaling Pathway (AID 357); conditions: ME-180 AP-1-bla reporter, EGF-induced, beta-lactamase ratio, 5 h; at 7.69 µM (top of the series) unless noted; note: % is set by controls: 0 for no effect and ±100 for the full control effect
In short: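 ME-180 cells with beta-lactamase reporter under AP-1 response element, stimulated with EC50 EGF; compounds tested in titration series, 5 h at 37 °C. CCF4 substrate added 2.5 h at room temperature; 460/530 nm emission ratio gave %activity and AC50.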

[2] = NFAT Signaling Pathway (AID 444); conditions: Jurkat NFAT-bla M1, carbachol, beta-lactamase ratio, 5 h; at 7.69 µM (top of the series) unless noted;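 note: carbachol stimulus at about its EC50 of 1 µM final; % is set by controls: 0 for no effect and ±100 for the full control effect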
[3] = Stat Signaling Pathway (AID 446); conditions: ME-180 SIE beta-lactamase reporter, IL-6 stimulated, 5 h; at 7.69 µM (top of the series) unless noted;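 note: ME-180 cervical cancer cells given 40 pM IL-6 alongside compound; SIE-controlled beta-lactamase reporter measured as 460/530 nm FRET emission ratio; % is set by controls: 0 for no effect and ±100 for the full control effect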
In short: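 IL-6/STAT signaling read in ME-180 cells via an SIE beta-lactamase reporter. Stimulus was 40 pM IL-6 (its AC50) for 5 hrs, so both activation and inhibition register.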

[4] = biological target: Mitogen-activated protein kinase 10 (Mus musculus) (UniProt Q61831); test: JNK3 AlphaScreen Assay (AID 530); conditions: JNK3 lysate, c-Jun phosphorylation; at 11.4 µM (top of the series) unless noted;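 note: kinase came from lysate of stimulated human HepG2 cells; signal reports phosphorylation of biotinylated GST-cJun 1-79 at Ser73 with 10 µM ATP; % is set by controls: 0 for no effect and ±100 for the full control effect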
In short: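 Room-temperature AlphaScreen kinase assay; pre-activated HepG2 lysate as JNK3 source, biotin-GST-cJun(1-79) substrate, 10 uM ATP, compound 15 min preincubation.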

[5] = biological target: 3',5'-cyclic-AMP phosphodiesterase 4B (Homo sapiens) (UniProt Q07343); test: qHTS Assay for Inhibitors of PDE-IV (AID 607; active = well fitted activation curve with a large enough effect in the main read-out, with a control signal flat, not every such curve was filed as active; note: % of control where 0% means no effect); conditions: HEK293 ACTOne CNG channel cells, membrane potential fluorescence; at 22.9 µM (top of the series)
In short: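 Live HEK293 cells with a modified cyclic nucleotide-gated (CNG) channel report intracellular cAMP via membrane-potential dye fluorescence (ex 535/em 590 nm). Endogenous PDE-IV was targeted. Compounds were tested at up to 22.9 uM final; RO 20-1724 100 uM served as control.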

[6] = Cell Proliferation Assay against the TMD8 Cell Line (AID 651645; active = well fitted curve in the direction sought with a large enough effect; an effect the other way counts as inactive or inconclusive;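 note: cells exposed to compound for 48 h before reading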); conditions: TMD8 DLBCL cell line proliferation/viability; at 46.1 µM (top of the series)
In short: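 Viability by CellTiter-Glo after 48 h compound exposure of 500 log-phase TMD8 cells per well (RPMI, 5% FBS). Percent activity scaled between DMSO (100%) and 9.2 uM final bortezomib (0%).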

[7] = qHTS Assay for Identification of Small Molecule Agonists for Hypoxia Response Element Signaling Pathway (AID 914; active = well fitted activation curve with a large enough effect in the signal ratio, with a control signal flat, not every such curve was filed as active; the % refers to the signal ratio; note: % of control where 0% means no effect); conditions: ME-180 (cervical carcinoma) HRE-bla reporter, beta-lactamase ratio, CoCl2, 17 h; stronger effect = higher value
[8] = biological target: Glucocorticoid receptor (Homo sapiens) (UniProt P04150); test: qHTS assay for small molecule agonists of glucocorticoid receptor signaling (AID 588532; active = well fitted curve in the direction sought with a large enough effect in the signal ratio, with a control signal flat; the % refers to the signal ratio;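 note: 100% = dexamethasone at 0.1 µM and 0% = DMSO only wells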); conditions: HeLa MMTV-bla, beta-lactamase ratio, agonist, 18 h; stronger effect = higher value
[9] = biological target: Thyroid hormone receptor beta (Homo sapiens) (UniProt P10828); test: qHTS assay for small molecule agonists of thyroid hormone receptor beta signaling (AID 588545; calls by dose curve;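 note: 0% = DMSO only and 100% = 10 nM T3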); conditions: TR-UAS-bla GripTite HEK 293, beta-lactamase ratio, agonist mode, 18 h, percent of T3 response, DMSO as zero; at 76.7 µM (top of the series)
In short: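 TR-UAS-bla-GripTite HEK 293 cells in medium with 2% charcoal/dextran FBS, 0.1 mM NEAA and 1 mM sodium pyruvate were treated with titrated compounds for 18 hrs at 37 C. Beta-lactamase reporter was read with CCF4 dye (ex 405, em 460/530 nm); EC50 from Hill fits.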

[10] = biological target: Retinoic acid receptor RXR-alpha (Homo sapiens) (UniProt P19793); test: qHTS assay for small molecule antagonists of retinoid X receptor alpha signaling (AID 588546; active = well fitted inhibition curve with a large enough effect in the signal ratio, with a control signal flat, not every such curve was filed as active; the % refers to the signal ratio; note: potency is the fitted concentration of half-maximal effect); conditions: HEK293T RXRa-UAS-bla, beta-lactamase ratio, antagonist mode
In short: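 Beta-lactamase reporter inhibition, read as CCF4 fluorescence ratio (ex 405, em 460/530 nm) after 2 h at RT. HEK293T UAS-bla cells, 2500/well, were stimulated with 9-cis-RA at 500 or 100 nM final alongside test compound for 18 h at 37 C.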

[11] = qHTS assay for environmental chemicals that activate the Aryl hydrocarbon Receptor (AhR) signaling pathway (AID 651777; active = well fitted curve in the direction sought with a large enough effect; an effect the other way counts as inactive or inconclusive; note: % of control where 0% means no effect; nearly all actives have a fitted effect of over 15% in size); conditions: 1A2-DRE human hepatoma cells, luciferase, 24 h; stronger effect = higher value
In short: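 Reporter gene assay: hepatoma cells with DRE/CYP1A2-luciferase, 24 hr compound incubation at 37 C, 5% CO2, luminescence after One-Glo (30 min, RT).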

[12] = biological target: Peroxisome proliferator-activated receptor alpha (Homo sapiens) (UniProt Q07869); test: qHTS assay for small molecule agonists of the peroxisome proliferator-activated receptor alpha (PPARalpha) signaling pathway (AID 651778; active = well fitted curve in the direction sought with a large enough effect; an effect the other way counts as inactive or inconclusive; note: % of control where 0% means no effect); conditions: PathHunter PPARalpha complementation, chemiluminescence, 6 h; stronger effect = higher value
[13] = qHTS assay for cell viability of HEK293 cells (AID 743288; active = well fitted curve in the direction sought with a large enough effect; an effect the other way counts as inactive or inconclusive; note: potency is the fitted concentration of half-maximal effect; nearly all actives have a fitted effect of over 50% in size); conditions: ATP luminescence (CellTiter-Glo), 18 h; max response: stronger effect = lower value
In short: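 Total intracellular ATP, measured with a luciferase-coupled reagent, indicates the number of viable HEK293 cells. Exposure to test chemicals lasts 18 h at 37 C in 1,536-well format at 2,000 cells/well.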

[14] = qHTS assay for cell viability of the p53RE-bla HCT-116 cell line (AID 743292; active = well fitted curve in the direction sought with a large enough effect; an effect the other way counts as inactive or inconclusive; note: potency is the fitted concentration of half-maximal effect; nearly all actives have a fitted effect of over 55% in size)
In short: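 ATP-based luminescence, 16 h compound exposure at 37 C, p53RE-bla HCT-116 cells at 4,000/well.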

[15] = biological target: Nuclear receptor subfamily 1 group I member 2 (Rattus norvegicus) (UniProt Q9R1A7); test: qHTS assay for small molecule activators of the rat pregnane X receptor (rPXR) signaling pathway (AID 651751; call rule not given here; note: 0% is about no effect); conditions: rPXR reporter cells, luciferase (One-Glo), 24 h
[16] = qHTS assay for small molecule activators of the human pregnane X receptor (PXR) signaling pathway (AID 720659; call rule not given here; note: 0% is about no effect); conditions: DPX-2 HepG2 CYP3A4-luciferase, 24 h; at 92.3 µM (top of the series)
[17] = biological target: Guanine nucleotide-binding protein G(i) subunit alpha-1 (Homo sapiens) (UniProt P63096); test: qHTS Assay for Inhibitors of RGS12 GoLoco Motif Activity (Green Fluorophore) (AID 879; active = well fitted curve in the direction sought with a large enough effect; an effect the other way counts as inactive or inconclusive;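 note: 0% = labeled peptide with Gαi1 and full inhibition = labeled peptide alone without protein; negative values mean loss of peptide binding seen as reduced polarization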); conditions: Galphai1/FITC-RGS12 GoLoco peptide, fluorescence polarization; at 57.1 µM (top of the series)
In short: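 Fluorescence polarization assay: 50 nM Gαi1 with 10 nM FITC-labeled RGS12 GoLoco peptide in 10 mM Tris pH 7.5, 150 mM NaCl, 0.1 mM GDP, 0.05% NP40, 10 min at room temperature with compound.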

[18] = qHTS Assay for Identification of Small Molecule Agonists for Thrombopoietin (TPO) Signaling Pathway (AID 917; active = well fitted curve in the direction sought with a large enough effect; an effect the other way counts as inactive or inconclusive; note: % is set by controls: 0 for no effect and ±100 for the full control effect); conditions: TPO signaling pathway reporter cells, agonist qHTS, stimulated with TPO at its EC50; at 38.5 µM (top of the series)
[19] = biological target: Muscarinic acetylcholine receptor M1 (Rattus norvegicus) (UniProt P08482); test: qHTS Assay for Antagonists of Acetylcholine Muscarinic M1 Receptor: Measurement of IP-One Response (AID 944; active = well fitted curve in the direction sought with a large enough effect; an effect the other way counts as inactive or inconclusive; note: nearly all actives have a fitted effect of over 75% in size)
[20] = biological target: Pyruvate kinase PKM (Homo sapiens) (UniProt P14618); test: qHTS Assay for Activators of Human Muscle Pyruvate Kinase (AID 954; active = well fitted curve in the direction sought with a large enough effect, not every such curve was filed as active;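 note: 0% = uninhibited enzyme and -100% = no enzyme or full thiadiazolimine inhibition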); conditions: purified human PKM1 enzyme activity; at 57.5 µM (top of the series)
In short: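 Enzyme was run at intermediate activity so both inhibitors and activators could be detected. ATP formed from ADP and PEP by 0.1 nM human PKM2 during a 1 h room-temperature incubation was quantified by coupled luciferase luminescence.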

[21] = biological target: Alpha-galactosidase A (Homo sapiens) (UniProt P06280); test: Counterscreen for Glucocerebrosidase Inhibitors: qHTS Assay for Human alpha-Galactosidase at pH 4.5 (AID 992; active = well fitted curve in the direction sought with a large enough effect; an effect the other way counts as inactive or inconclusive; note: 0% is about no effect); conditions: purified enzyme, fluorogenic substrate; at 76.9 µM (top of the series)
In short: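 Read-out is 4-methylumbelliferone fluorescence (365 nm excitation, 440 nm emission) after a pH 10 NaOH/glycine stop. Reactions held 2 nM enzyme and 80 uM substrate at pH 4.5 for 20 min at room temperature.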

[22] = biological target: alpha-glucosidase (Oryza sativa, rice) (UniProt Q653V4); test: Counterscreen for Glucocerebrosidase Inhibitors: qHTS Assay for Rice alpha-Glucosidase at pH 5.0 (AID 997; active = well fitted curve in the direction sought with a large enough effect; an effect the other way counts as inactive or inconclusive;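 note: 0% = full activity with enzyme and -100% = basal without enzyme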); conditions: rice alpha-glucosidase enzyme activity; at 76.9 µM (top of the series)
In short: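 Rice alpha-glucosidase (4 nM final) with 400 uM 4-methylumbelliferyl-alpha-D-glucopyranoside in citrate buffer pH 5.0, 20 min at room temperature, stopped at pH 10; fluorescence 365/440 nm, compounds 0.7 nM–77 uM, AC50 from Hill fits.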

[23] = Cell Proliferation Assay against the HBL1 Cell Line (AID 651646; active = well fitted curve in the direction sought with a large enough effect; an effect the other way counts as inactive or inconclusive;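 note: cells exposed to compound for 48 h before reading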); conditions: HBL1 DLBCL cells; at 46.1 µM (top of the series) unless noted
In short: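 Luminescent ATP read-out (CellTiter-Glo) after 48 h compound exposure of HBL1 cells at 37 °C; percent activity was scaled between DMSO as 100% and 9.2 uM bortezomib (final) as 0%.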

[N-]=[N+]=NCC(N)=O
inactive: activity change, negative = inhibition [1] -6.87% | activity change, negative = inhibition [2] 0.823% | activity, negative = inhibition [3] -0.888% | activity change, negative = inhibition [4] 2.21% | activation (PDE inhibition) [5] 3.97%

CS(=O)(=O)c1cccc(CNc2nc(Nc3ccc4c(c3)CCC(=O)N4)ncc2C(F)(F)F)c1
109%: viability (% of control) [6]

Cc1ccc(OCC(=O)OC2CN3CCC2CC3)cc1 (stereo unspecified)
inactive: activity change, negative = inhibition [1] -3.83% [at 17.2 µM] | activity, negative = inhibition [3] 6.78% [at 17.2 µM] | activation [7] 7.31%

O=C1C2CC=CCC2C(=O)N1SC(Cl)(Cl)C(Cl)Cl (stereo unspecified)
active: Potency [10] 6.31 µM | Potency [13] 31.6 µM | Potency [14] 31.6 µM
inactive: activation [8] -1.35% | activation [9] 12.5% | activation [11] 7.49% | max response [12] -5.51% | max response [15] -15.1% | activation [16] 2.13%

CN(C(=O)Cc1ccccc1)[C@@H]1CC[C@@]2(CCCO2)C[C@H]1N1CCCC1
inactive: activity change, negative = inhibition [1] 11.7% [at 38 µM] | activity change, negative = inhibition [2] -16.3% [at 38 µM] | activity, negative = inhibition [3] 6.34% [at 38 µM] | activation (PDE inhibition) [5] 0.694% | activity, negative = inhibition [17] -11.2% | activity, positive = activation [18] -10.7% | Potency [19] | activity change, negative = inhibition [20] -14.5% | activity change, negative = inhibition [21] -0.133% | activity change, negative = inhibition [22] -1.03%

CC1(C)Cc2c(-c3ccccc3)c(-c3ccc(Cl)cc3)c(CC(=O)O)n2C1
74.1%: viability (% of control) [6]

Cc1ccnc(NS(=O)(=O)c2ccc(NC(=O)Nc3ccc(S(=O)(=O)Nc4nccc(C)n4)cc3)cc2)n1
71.1%: viability, percent of control [23]

C1=CCOCc2cc(ccc2OCCN2CCCC2)Nc2nccc(n2)-c2cccc(c2)OCC1
69.9%: viability, percent of control [23]

CN1CCC[C@H](OC(=O)C(c2ccccc2)c2ccccc2)C1
inactive: activity change, negative = inhibition [1] -3.51% | activity, negative = inhibition [3] -5.56% | activity change, negative = inhibition [4] 2.21% | activation (PDE inhibition) [5] 9.75%
active: activity change, negative = inhibition [2] -81.2%
